Experiments:
[1] = molecular target: DPP-4 enzyme (Homo sapiens, UniProt P27487); experiment: Stability test on DPP-4 enzyme; format: in vitro ADME; conditions: Table 10; 5 nmol peptide, 5 mU DPP-4, Tris-HCL 50 mM, pH 7.4, 37° C., HPLC peak area 8 h / 0 h
Protocol: 5 nmol of OXM hybrid peptides and 5 mU of DPP-4 enzyme were put into 200 μL of a Tris-HCL buffer solution with a concentration of 50 mM. Under the condition of pH 7.4, incubation was performed for 8 h at 37° C. After the reaction was completed, 10 L of a 20% acetonitrile/water solution was added for terminating the reaction. Incubation solutions at 0 h and 8 h were taken, treated and subjected to HPLC analysis under the following analysis conditions: C18 reversed-phase column (150 mm×4.6 mm, 5 μm); mobile phase A: 0.1% TFA/water (V/V), and mobile phase B: 0.1% TFA/acetonitrile (V/V); mobile phase gradient: mobile phase B 10%-45%, 22 min; flow rate: 1 mL/min; column temperature: 40° C.; and detection wavelength: 214 nm. The stability condition of OXM analogs on the DPP-4 was expressed by a ratio (% intact peptide after 8 h) of the HPLC peak area of the incubation solution at 8 h to the HPLC peak area of the incubation solution at 0 h.

By UniProt entry, the sequences of proteins in these tests, tags left out.
UniProt P27487, whole entry, species assumed: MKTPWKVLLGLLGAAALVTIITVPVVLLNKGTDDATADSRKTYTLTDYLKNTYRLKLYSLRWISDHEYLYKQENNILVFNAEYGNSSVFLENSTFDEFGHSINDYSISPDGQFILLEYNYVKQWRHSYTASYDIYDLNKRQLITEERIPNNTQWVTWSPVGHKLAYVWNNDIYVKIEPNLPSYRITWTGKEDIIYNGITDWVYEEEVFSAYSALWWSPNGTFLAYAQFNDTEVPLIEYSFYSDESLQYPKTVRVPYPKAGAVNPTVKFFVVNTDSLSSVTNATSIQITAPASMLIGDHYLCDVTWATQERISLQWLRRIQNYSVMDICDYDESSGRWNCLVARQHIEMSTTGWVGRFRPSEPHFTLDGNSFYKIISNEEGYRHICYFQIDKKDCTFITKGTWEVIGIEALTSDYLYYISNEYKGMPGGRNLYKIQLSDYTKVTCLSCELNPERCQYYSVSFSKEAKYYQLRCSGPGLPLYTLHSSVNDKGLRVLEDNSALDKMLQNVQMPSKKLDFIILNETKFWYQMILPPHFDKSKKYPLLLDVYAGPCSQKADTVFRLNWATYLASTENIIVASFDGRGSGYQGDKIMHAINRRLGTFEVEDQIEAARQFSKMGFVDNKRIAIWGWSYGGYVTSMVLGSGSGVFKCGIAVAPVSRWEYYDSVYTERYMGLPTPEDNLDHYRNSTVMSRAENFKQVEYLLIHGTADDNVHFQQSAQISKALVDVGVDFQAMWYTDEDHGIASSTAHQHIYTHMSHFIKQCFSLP

[2] = endogenic GLP-1; cited from earlier work

Row | Substance | % intact peptide after 8 h [1] [%] | half-life period [2] [min]
1 | Oxyntomodulin [OXM, reference compound] | 39.1 ± 5.9 | –
2 | glucagon-like peptide-1 [GLP-1] | 4.3 ± 6.2 | 2 to 3
